Target: nicotinic receptors containing the α7 subunit (Rattus norvegicus, UniProt Q05941)
Test: [3H]-α-bungarotoxin binding to rat brain membranes, affinity for α7 nicotinic receptors
Conditions: read-out: IC50 α7; inhibition of specific binding of 1 nM [3H]-α-bungarotoxin, rat whole brain membranes
Procedure: The compounds of the invention were also studied with regard to their affinity for nicotinic receptors containing the α7 subunit, in accordance with the methods described by Mark and Collins in J. Pharmacol. Exp. Ther. 1982, 22, 564 and by Marks et al. in Mol. Pharmacol. 1986, 30, 427.
Male OFA rats weighing 150 to 200 g are decapitated, the whole brain is removed rapidly and is homogenized using a Polytron™ mill in 15 volumes of 0.32 M sucrose solution at 4° C., then centrifuged at 1,000 G for 10 min. The pellet is discarded and the supernatant is centrifuged at 8,000 G at 4° C. for 20 min. The pellet is recovered and is homogenized using a Polytron™ mill in 15 volumes of double-distilled water at 4° C., then centrifuged at 8,000 G for 20 min. The pellet is discarded and the supernatant and layer of skin (buffy coat) are centrifuged at 40,000 G for 20 min. The pellet is recovered and resuspended in 15 volumes of double-distilled water at 4° C. and is centrifuged again at 40,000 G for 20 min, before being stored at −80° C. […] The filters are rinsed with two times 5 ml of buffer at 4° C. and the radioactivity retained on each filter is measured by liquid scintigraphy. The nonspecific binding in the presence of α-bungarotoxin at 1 μM final is measured; the nonspecific binding represents approximately 60% of the total binding recovered on the filter. […]

Amino acid sequences for entries named in this document (tags omitted). Residues count along the entry.
UniProt Q05941, 23-502 limits assumed: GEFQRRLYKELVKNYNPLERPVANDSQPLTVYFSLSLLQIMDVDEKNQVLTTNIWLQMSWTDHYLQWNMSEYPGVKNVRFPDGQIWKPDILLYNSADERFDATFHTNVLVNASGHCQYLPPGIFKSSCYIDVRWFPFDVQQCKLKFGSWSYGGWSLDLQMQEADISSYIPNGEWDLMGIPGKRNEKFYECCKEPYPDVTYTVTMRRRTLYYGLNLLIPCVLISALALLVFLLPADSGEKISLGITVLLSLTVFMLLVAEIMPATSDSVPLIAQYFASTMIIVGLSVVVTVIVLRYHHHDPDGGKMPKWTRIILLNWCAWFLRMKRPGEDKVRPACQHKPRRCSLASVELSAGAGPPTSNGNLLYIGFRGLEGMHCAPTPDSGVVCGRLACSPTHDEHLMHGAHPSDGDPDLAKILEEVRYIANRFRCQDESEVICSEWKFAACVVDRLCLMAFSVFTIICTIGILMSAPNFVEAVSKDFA

O=C(c1n[nH]c2ccc(Cl)cc12)N1CCN2CCC1C2 (stereo not shown)
IC50: 0.224 µM

Source: patent publication US7589201B2, “Derivatives of 1,4-diazabicyclo[3.2.1]octanecarboxamide, preparation method thereof and use of same in therapeutics” (Sanofi-Aventis, priority 2004, dated 2009)
